Source: patent US10092570B2 (Incyte Corporation, priority 2011, dated 2018)
Counter-ions that a name gives are not always drawn.

The chains behind the UniProt entries cited, without tags or fusion partners. Where a name states a change or a piece, a line headed by the entry shows the natural chain unless it says otherwise.
UniProt O00329: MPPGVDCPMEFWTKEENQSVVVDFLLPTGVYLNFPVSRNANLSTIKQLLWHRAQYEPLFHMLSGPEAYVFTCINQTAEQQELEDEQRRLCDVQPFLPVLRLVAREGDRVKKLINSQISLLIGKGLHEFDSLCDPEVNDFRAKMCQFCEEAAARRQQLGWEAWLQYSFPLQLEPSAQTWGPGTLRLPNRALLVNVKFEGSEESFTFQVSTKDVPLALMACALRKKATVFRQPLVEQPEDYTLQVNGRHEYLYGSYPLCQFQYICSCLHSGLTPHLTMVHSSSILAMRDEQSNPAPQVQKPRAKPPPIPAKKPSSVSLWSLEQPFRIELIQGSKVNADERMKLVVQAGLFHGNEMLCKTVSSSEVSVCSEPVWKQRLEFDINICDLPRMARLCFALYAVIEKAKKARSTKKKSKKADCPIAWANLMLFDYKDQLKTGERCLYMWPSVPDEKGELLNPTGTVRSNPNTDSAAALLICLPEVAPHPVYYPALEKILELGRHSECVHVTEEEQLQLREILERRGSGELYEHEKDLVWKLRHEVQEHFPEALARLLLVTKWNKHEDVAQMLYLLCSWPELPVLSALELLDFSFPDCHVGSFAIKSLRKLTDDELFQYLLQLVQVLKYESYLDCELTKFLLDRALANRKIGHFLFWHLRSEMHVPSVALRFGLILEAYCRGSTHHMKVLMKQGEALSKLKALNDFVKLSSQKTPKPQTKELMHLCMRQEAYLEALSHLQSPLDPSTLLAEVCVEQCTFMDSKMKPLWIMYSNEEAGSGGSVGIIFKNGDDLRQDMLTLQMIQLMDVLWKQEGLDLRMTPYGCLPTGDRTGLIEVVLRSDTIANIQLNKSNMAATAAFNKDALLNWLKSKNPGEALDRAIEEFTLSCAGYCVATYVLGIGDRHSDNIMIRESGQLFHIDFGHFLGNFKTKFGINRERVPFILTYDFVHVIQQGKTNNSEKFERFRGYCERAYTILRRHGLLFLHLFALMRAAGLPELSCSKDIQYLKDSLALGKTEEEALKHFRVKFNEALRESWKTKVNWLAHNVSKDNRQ

target: PI3Kδ (p110δ/p85α) (Homo sapiens (Human), UniProt O00329); test: Example A3: PI3Kδ scintillation proximity assay; format: biochemical; conditions: 20 μM ATP, 4 nM PI3Kδ, read-out: PI3Kδ SPA IC50
Experimental: [γ-^33P]ATP (10 mCi/mL) was purchased from Perkin-Elmer (Waltham, Mass.). […] PI3Kδ (p110δ/p85α) was purchased from Millipore (Bedford, Mass.). ATP, MgCl2, DTT, EDTA, MOPS and CHAPS were purchased from Sigma-Aldrich (St. Louis, Mo.). Wheat Germ Agglutinin (WGA) YSi SPA Scintillation Beads was purchased from GE healthcare life sciences (Piscataway, N.J.).
The kinase reaction was conducted in polystyrene 384-well matrix white plate from Thermo Fisher Scientific in a final volume of 25 μL. Inhibitors were first diluted serially in DMSO and added to the plate wells before the addition of other reaction components. The final concentration of DMSO in the assay was 0.5%. The PI3K assays were carried out at room temperature in 20 mM MOPS, pH 6.7, 10 mM MgCl2, 5 mM DTT and CHAPS 0.03%. Reactions were initiated by the addition of ATP, the final reaction mixture consisted of 20 μM PIP2, 20 μM ATP, 0.2 μCi [γ-^33P] ATP, 4 nM PI3Kδ. […] 25 mM EDTA, 400 μM ATP. The final concentration of SPA beads was 1.0 mg/mL. After the plate sealing, plates were shaken overnight at room temperature and centrifuged at 1800 rpm for 10 minutes, the radioactivity of the product was determined by scintillation counting on Topcount (Perkin-Elmer). IC50 determination was performed by fitting the curve of percent control activity versus the log of the inhibitor concentration using the GraphPad Prism 3.0 software.

Row | Structure (SMILES) | IC50 [µM]
1 | COc1c(C(C)n2nc(C)c3c(N)ncnc32)cc(C)c(C#N)c1-c1ccc(C(=O)N(C)C)nc1 (single isomer, unassigned) [Example 344, 5-{3-[1-(4-amino-3-methyl-1H-pyrazolo[3,4-d]pyrimidin-1-yl)ethyl]-6-cyano-2-methoxy-5-methylphenyl}-N,N-dimethylpyridine-2-carboxamide] | < 0.01
2 | COc1c(C(C)n2nc(C(F)F)c3c(N)ncnc32)cc(Cl)c(C)c1C1CN(C(C)C)C1 (racemic) [Example 127, 1-{1-[5-Chloro-3-(1-isopropylazetidin-3-yl)-2-methoxy-4-methylphenyl]ethyl}-3-(difluoromethyl)-1H-pyrazolo[3,4-d]pyrimidin-4-amine] | < 0.01
3 | COc1c(C(C)n2nc(C)c3c(N)ncnc32)cc(Cl)c(C)c1C1CC(O)C1 (stereo not shown) [Example 166, 3-{3-[1-(4-Amino-3-methyl-1H-pyrazolo[3,4-d]pyrimidin-1-yl)ethyl]-5-chloro-2-methoxy-6-methylphenyl}cyclobutanol trifluoroacetate] | < 0.01
4 | COc1c(C(C)n2nc(C)c3c(N)ncnc32)cc(C)c(C#N)c1-c1cncc(S(C)(=O)=O)c1 (racemic) [Example 317, 4-[1-(4-amino-3-methyl-1H-pyrazolo[3,4-d]pyrimidin-1-yl)ethyl]-3-methoxy-6-methyl-2-[5-(methylsulfonyl)pyridin-3-yl]benzonitrile] | < 0.01
